Protein sequences, listed by entry. Tags and fused reporters are not part of them.
UniProt P33535, whole entry: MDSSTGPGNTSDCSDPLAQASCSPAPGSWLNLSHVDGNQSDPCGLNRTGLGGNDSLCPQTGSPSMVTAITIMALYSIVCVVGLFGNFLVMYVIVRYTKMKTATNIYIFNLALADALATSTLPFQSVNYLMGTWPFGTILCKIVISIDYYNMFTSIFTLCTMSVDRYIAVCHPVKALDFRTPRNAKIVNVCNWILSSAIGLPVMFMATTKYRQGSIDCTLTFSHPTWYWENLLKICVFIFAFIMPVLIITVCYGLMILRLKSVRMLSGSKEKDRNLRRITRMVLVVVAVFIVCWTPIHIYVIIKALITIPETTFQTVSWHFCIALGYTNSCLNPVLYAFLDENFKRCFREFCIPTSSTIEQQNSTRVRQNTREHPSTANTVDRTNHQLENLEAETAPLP

In the supplement of paper PMC6733853:

Target: mu opioid receptor (rat) (UniProt P33535)
Settings: receptor: rat MOR

CN(C)C(=O)C(CCN1CCC(O)(c2ccc(Cl)cc2)CC1)(c1ccccc1)c1ccccc1 [Loperamide]
Settings	pEC50
Gαi1	7.26
Gαi2	8.18
Gαo	7.89
Kir	6.18
cAMP	8.15
βarrestine 1	6.13
βarrestine 2	5.76
βarrestine 2-GRK2	6.44
βarrestine 2-GRK5	6.48
βarrestine 2-GRK6	6.17
